Protein sequences, listed by entry. Tags and fused reporters are not part of them.
UniProt P06493, whole entry, looked up: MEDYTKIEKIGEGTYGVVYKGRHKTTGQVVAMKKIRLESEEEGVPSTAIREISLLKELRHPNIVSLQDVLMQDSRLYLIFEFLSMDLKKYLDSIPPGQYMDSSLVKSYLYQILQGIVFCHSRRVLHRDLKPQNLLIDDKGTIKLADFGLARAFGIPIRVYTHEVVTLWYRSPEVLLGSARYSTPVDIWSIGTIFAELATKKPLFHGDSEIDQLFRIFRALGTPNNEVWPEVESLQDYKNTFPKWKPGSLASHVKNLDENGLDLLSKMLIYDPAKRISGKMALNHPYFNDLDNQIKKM

According to patent US8552053B2, “7-substituted indirubin-3′oximes and their applications” (Centre National de la Recherche Scientifique, priority 2005, dated 2013):

Biological target: CDK1/cyclin B (UniProt P06493)
Test: CDK1/cyclin B kinase assay
Assay type: biochemical, starfish (Marthasterias glacialis)
Conditions: listed as 24

O=C1Nc2c(Br)cccc2/C1=C1/Nc2ccccc2/C1=N\O
inhibitory activity on CDK1/cyclin B (in words): weak and gradually decreasing inhibitory activity
